This passage reports activity change, negative = inhibition results from PubChem BioAssay AID875 (National Center for Advancing Translational Sciences (NCATS), 2007).

By UniProt entry, the sequences of proteins in these tests, tags left out.
UniProt P38398, whole entry: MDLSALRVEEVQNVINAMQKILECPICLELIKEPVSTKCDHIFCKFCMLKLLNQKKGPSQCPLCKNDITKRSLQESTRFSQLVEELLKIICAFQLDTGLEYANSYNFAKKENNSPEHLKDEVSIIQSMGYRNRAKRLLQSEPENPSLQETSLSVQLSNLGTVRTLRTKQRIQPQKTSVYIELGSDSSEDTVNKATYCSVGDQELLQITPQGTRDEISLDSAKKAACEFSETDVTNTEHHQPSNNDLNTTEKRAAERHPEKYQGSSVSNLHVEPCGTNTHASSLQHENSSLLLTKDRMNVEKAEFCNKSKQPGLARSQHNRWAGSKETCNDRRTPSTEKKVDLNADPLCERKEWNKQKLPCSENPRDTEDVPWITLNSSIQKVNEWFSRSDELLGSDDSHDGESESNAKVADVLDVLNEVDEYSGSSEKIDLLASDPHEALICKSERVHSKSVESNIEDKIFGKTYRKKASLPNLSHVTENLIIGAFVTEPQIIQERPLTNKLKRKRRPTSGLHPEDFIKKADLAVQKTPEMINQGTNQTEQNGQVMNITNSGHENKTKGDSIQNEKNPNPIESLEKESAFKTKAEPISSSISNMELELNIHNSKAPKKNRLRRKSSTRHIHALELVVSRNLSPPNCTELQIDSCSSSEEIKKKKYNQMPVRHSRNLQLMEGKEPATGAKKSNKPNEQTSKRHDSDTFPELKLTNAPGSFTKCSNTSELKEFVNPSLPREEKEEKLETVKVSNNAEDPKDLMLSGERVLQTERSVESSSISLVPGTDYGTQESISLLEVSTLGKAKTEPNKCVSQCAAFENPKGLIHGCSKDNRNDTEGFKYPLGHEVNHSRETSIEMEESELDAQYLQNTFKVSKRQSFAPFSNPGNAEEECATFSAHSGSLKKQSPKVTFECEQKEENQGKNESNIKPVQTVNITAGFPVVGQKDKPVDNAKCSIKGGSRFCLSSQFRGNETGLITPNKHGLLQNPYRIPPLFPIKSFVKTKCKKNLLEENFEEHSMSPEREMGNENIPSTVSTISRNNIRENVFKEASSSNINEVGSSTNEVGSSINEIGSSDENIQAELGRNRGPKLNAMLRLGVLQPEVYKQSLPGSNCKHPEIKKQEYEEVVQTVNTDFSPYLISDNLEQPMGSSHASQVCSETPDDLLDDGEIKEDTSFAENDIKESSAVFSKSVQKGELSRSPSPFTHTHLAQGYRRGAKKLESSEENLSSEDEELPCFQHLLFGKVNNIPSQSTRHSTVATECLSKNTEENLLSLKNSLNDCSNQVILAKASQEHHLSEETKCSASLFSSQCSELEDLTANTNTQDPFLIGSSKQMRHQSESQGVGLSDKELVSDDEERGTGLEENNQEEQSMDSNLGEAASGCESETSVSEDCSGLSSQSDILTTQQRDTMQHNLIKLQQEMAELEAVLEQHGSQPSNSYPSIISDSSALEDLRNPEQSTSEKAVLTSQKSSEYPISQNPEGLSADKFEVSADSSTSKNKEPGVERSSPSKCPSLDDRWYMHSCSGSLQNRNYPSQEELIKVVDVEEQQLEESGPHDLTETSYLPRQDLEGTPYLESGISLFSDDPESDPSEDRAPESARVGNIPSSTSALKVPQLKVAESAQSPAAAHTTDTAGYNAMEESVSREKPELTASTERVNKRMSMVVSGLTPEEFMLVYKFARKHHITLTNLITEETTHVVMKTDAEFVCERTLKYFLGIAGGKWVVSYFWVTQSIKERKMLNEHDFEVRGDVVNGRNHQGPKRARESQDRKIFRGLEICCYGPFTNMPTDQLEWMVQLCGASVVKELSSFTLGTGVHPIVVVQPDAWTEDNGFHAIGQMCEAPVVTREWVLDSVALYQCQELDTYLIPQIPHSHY

Only a part is listed here, and it is no random draw. Active and inactive are the calls of the source. The call rests on the fitted dose curve; in most records, active means well fitted inhibition curve with a large enough effect; inconclusive means small, poorly fitted or top-dose-only effect; inactive means no such curve, though single readings can be large or run the other way.

The target in this test is Breast cancer type 1 susceptibility protein (Homo sapiens) (UniProt P38398). As to the kind of experiment: qHTS Assay for Inhibitors of BRCT-Phosphoprotein Interaction (Green Fluorophore).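 Further: plate controls were peptide without protein for full effect.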 The settings on record: BRCA1 BRCT-phosphopeptide binding, green fluorescence polarization; at 76.9 µM (top of the series) unless noted. The procedure: NIH Molecular Libraries Screening Centers Network [MLSCN]
NIH Chemical Genomics Center [NCGC]
PI Name: Natarajan, Amarnath; University of Texas
A complex of BRCT (C-terminal portion of BRCA1, MW ~35 kDa, His-tagged) and fluorescently labeled pBACH1 phosphorylated 10 aa peptide fragment of BACH1, a helicase implicated in DNA repair, is incubated with library members. Inhibitors of BRCT-pBACH1 binding are detected by a decrease in the fluorescence polarization (FP) of the fluorophore. In order to minimize the effect of fluorescence artifacts and to increase the overall robustness of the screen, the compound library members were incubated in separate reactions with fluorescein labeled probe-protein complexes. Protein and labeled probes were supplied by Dr. Amarnath Natarajan, Department of Pharmacology and Toxicology, University of Texas Medical Branch Galveston, TX.
Assay Buffer: 16mM Na2HPO4, 4 mM NaH2PO4, 150 mM NaCl, 1 mM EDTA, 1 mM DTT, 0.02% NaN3, and 0.01% Tween 20 at pH 7.3.
100 nM labeled decapeptide/250 nM protein in columns 1, 2, 5 - 48. Titration of unlabeled decapeptide control (from 10 mM, then 1:2 dilution in duplicate) pin-transferred to column 2, rows 1 to 16. Column 1 is neutral.
Three uL of reagents were dispensed to 1536-well Greiner black solid-bottom plates. Compounds and controls (23 nL) were transferred
via Kalypsys PinTool. The plates were incubated for 12 min at room temperature, and then read on ViewLux (Perkin-Elmer) High throughput CCD imager using FITC for the fluorescein-labeled decapeptide probe polarization filter sets. During dispense, reagent bottles were kept submerged into 4 deg C water bath and all liquid lines were covered with aluminum foil to minimize probe and protein degradation. All screening operations were performed on a Kalypsys robotic system (Kalypsys, Inc., San Diego, CA) containing one RX-130 and two RX-90 anthropomorphic robotic arms. The timing and order of assay plates passing through the screening system were adjusted such that each compound library plate was assayed against the fluorescein- and rhodamine-labeled assay systems at immediately adjacent time points.
For `O=C(O)C1(Nc2ccccc2)CCN(Cc2ccccc2)CC1`, the activity change, negative = inhibition was inactive: 0.0469% [at 15.4 µM].
On to `CCOc1ncccc1C(=O)NCC1(N2CCOCC2)CCCCC1`, for which the activity change, negative = inhibition is inactive: 0.326%.
As to `CCC(CO)(C(=O)OC1CN2CCC1CC2)c1ccccc1` (stereo unspecified), the activity change, negative = inhibition was inactive: -3.34%.
For `Fc1ccccc1NC1CCN(Cc2ccccc2)CC1` the value was inactive: -2.61%; for `ClCCOP(OCCCl)OCCCl`, inactive: -0.82%; for `N/C(=N\O)c1c(N)no[n+]1[O-]`, inactive: 0.068%.
For `CCOP(=O)(Cl)Cl` the value was inactive: -1.17%; for `NC1CCCCC1.NP(=O)(O)N(CCCl)CCCl`, inactive: -1.1% [at 15.4 µM].
The same measure for `N#CC1(Nc2ccccc2)CCN(CCc2ccccc2)CC1`: inactive: -1.79%; for `COc1ccc(NC2CCN(CCc3ccccc3)CC2)c(OC)c1`: inactive: -0.437%.
`O=C(OC1CN2CCC1CC2)C1c2ccccc2Oc2ccccc21` (stereo unspecified): the activity change, negative = inhibition is inactive: -3.57%.
